From patent publication US7470703B1 (priority 2004, dated 2008)
Read-outs that look alike come from different tables or passages of the source.

Chains of the proteins cited; added tags and fusions are not shown.
UniProt P08913, whole entry: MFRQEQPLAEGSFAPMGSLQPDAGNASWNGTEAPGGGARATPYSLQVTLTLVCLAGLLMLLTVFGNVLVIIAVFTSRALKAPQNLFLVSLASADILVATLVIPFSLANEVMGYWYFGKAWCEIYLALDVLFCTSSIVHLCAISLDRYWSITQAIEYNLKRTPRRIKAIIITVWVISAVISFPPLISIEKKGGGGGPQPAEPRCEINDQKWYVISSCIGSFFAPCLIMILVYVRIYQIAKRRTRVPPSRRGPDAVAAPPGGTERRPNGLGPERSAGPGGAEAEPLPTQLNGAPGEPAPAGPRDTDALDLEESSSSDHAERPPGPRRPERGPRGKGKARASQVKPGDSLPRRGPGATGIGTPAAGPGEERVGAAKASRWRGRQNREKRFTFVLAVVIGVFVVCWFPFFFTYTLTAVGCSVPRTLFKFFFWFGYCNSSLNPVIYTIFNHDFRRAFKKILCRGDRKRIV
UniProt P35348, whole entry: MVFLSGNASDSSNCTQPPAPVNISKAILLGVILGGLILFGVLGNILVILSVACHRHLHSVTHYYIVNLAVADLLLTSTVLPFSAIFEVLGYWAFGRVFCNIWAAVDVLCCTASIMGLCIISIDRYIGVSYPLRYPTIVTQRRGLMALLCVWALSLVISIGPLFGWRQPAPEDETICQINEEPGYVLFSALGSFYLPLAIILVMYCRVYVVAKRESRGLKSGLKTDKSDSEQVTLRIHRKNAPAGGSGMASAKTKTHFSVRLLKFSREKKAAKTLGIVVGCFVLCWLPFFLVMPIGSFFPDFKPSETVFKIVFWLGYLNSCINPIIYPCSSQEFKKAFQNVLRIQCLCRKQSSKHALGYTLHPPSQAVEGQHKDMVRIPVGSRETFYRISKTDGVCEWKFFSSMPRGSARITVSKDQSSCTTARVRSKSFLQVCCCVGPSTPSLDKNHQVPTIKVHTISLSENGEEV
UniProt P35368, whole entry: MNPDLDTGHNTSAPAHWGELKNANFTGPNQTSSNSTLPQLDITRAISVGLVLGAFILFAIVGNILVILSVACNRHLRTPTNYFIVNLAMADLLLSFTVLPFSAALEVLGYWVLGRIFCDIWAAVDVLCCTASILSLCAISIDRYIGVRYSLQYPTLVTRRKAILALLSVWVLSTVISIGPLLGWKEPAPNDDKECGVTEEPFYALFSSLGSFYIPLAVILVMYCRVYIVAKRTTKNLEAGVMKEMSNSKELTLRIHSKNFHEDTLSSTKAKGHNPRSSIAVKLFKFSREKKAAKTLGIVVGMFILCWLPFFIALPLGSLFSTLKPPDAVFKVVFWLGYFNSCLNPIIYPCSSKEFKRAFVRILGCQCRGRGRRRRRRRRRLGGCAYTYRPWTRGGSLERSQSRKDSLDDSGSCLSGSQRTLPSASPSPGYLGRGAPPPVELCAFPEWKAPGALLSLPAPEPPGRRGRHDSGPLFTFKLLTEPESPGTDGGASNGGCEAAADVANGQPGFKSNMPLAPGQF
UniProt P25100, whole entry: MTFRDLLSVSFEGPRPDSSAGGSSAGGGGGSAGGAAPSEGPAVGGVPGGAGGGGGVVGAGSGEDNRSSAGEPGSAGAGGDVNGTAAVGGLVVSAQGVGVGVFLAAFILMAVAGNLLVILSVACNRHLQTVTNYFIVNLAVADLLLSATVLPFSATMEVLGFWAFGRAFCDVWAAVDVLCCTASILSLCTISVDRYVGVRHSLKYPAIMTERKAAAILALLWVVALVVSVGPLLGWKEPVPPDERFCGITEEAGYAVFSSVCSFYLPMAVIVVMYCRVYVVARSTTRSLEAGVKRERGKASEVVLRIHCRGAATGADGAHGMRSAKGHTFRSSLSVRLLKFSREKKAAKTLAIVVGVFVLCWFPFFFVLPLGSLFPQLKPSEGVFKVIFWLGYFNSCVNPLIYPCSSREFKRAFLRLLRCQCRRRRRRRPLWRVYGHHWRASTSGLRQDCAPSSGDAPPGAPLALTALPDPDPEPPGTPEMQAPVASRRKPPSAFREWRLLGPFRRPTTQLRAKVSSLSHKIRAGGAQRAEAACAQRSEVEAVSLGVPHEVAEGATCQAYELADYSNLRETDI

Columns and labels:
[1] = molecular target: human α2A-AR (Homo sapiens, UniProt P08913); experiment: Radioligand binding ([3H]rauwolscine) in CHO cells expressing human α2A-AR
[2] = molecular target: human α1A-AR (Homo sapiens, UniProt P35348)
[3] = molecular target: human α1B-AR (Homo sapiens, UniProt P35368)
[4] = molecular target: human α1D-AR (Homo sapiens, UniProt P25100)

Compound	Ki [1] [nM]	Ki ([1]; read-out: Ki α2A, CHO cells) [nM]	Ki [2] [nM]	Ki [3] [nM]	Ki [4] [nM]
COC(=O)CNC(=O)CNC(=O)[C@@H]1[C@H]2C[C@H]3c4[nH]c5ccccc5c4CCN3C[C@@H]2CC[C@@H]1O	46.8	46.7	–	–	–
CC(C)(C)OC(=O)NCCCNC(=O)C1C(O)CCC2CN3CCc4c([nH]c5ccccc45)C3CC21 (stereo not shown)	–	11.7	–	–	–
COC(=O)CNC(=O)[C@@H]1[C@H]2C[C@H]3c4[nH]c5ccccc5c4CCN3C[C@@H]2CC[C@@H]1O	–	33.8	–	–	–
O=C(NCCCNC(=O)C1C(O)CCC2CN3CCc4c([nH]c5ccccc45)C3CC21)OCc1ccccc1 (stereo not shown)	12.3	12.3	646	692	955
O=C(O)CCCNC(=O)C1C(O)CCC2CN3CCc4c([nH]c5ccccc45)C3CC21 (stereo not shown)	–	933	–	–	–
